Our source for the Potency values is PubChem BioAssay AID485314 (National Center for Advancing Translational Sciences (NCATS), 2010).

Structures are written as SMILES. The list shows a part of the results, in another mix than the full data. Inconclusive results are not listed. Activity calls are given as the source filed them. Calls follow the shape of the dose curve; as a rule, active = well fitted inhibition curve with a large enough effect; inconclusive = small, poorly fitted or top-dose-only effect, or another doubt; inactive = no such curve, though single readings can be large or run the other way.
Potency is read from the fitted curve at half-maximal effect.

The target of the assay is DNA polymerase beta (Homo sapiens) (UniProt P06746). Briefly: qHTS Assay for Inhibitors of DNA Polymerase Beta. The note with it: Pol beta primer extension/strand displacement, fluorescence kinetic. The text has this: The base excision repair system in human cells is a target for therapeutic modulation of the response to irradiation treatment and DNA-damaging drugs. A key enzyme in this system is the bi-functional DNA polymerase known as DNA polymerase Beta (Pol Beta). The following is a homogeneous kinetic assay to study the primer extension and strand-displacement reaction catalyzed by pol beta.
A stepwise description of the 1536-well assay is shown in next Table. Three microliters of reagents (buffer in column 3 and 4 as negative control and 10 nM Pol beta in columns 1, 2, and 5-48) was dispensed into 1,536-well black solid-bottomed plate. Compounds (23 nL) were transferred via Kalypsys pin tool equipped with 1536-pin array (10 nL slotted pins, V&P Scientific, San Diego, CA). The plates were incubated for 15 min at room temperature, and 1 uL substrate (50 nM final concentration) were added to start the reaction and immediately read at 0 min read on Viewlux reader. The plate were further incubated for 10 min at room temperature, and then read on Viewlux again. Throughout the screen, reagent bottle and all liquid lines were chilled and made light-tight to minimize reagent degradation. All screening operations were performed on a fully integrated robotic system (Kalypsys, San Diego, CA) containing one RX-130 and two RX-90 anthropomorphic robotic arms (Staubli, Duncan, SC). […]
For the compound `N=C(N)c1ccc(OCCCCCOc2ccc(C(=N)N)cc2)cc1` (tested in a mixture with another compound), the Potency was active: 4.47 µM.
Then `N=C(N)c1ccc(OCCCCCOc2ccc(C(=N)N)cc2)cc1`, with active: 1.12 µM.
